Test results from ChEMBL document CHEMBL5233201, “Progress in mechanistically novel treatments for schizophrenia” (RSC Med Chem, 2021).

Sequences of proteins named here, by UniProt entry; tags and fusion partners are left off.
UniProt P08908, whole entry: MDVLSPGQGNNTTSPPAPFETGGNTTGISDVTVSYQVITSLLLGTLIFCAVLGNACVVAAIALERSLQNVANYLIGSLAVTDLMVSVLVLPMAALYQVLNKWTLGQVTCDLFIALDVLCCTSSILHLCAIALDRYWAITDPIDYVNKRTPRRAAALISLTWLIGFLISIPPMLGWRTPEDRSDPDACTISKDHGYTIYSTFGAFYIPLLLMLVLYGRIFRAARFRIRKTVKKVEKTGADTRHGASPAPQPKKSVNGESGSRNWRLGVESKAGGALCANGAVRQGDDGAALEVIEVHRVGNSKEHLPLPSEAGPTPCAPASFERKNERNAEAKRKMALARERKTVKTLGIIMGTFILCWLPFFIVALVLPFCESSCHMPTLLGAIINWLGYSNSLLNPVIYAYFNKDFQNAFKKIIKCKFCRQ

Legend:
[1] = target: T1, Trace amine-associated receptor 1 (Homo sapiens) (UniProt Q96RJ0); assay: Agonist activity at human TAAR1 relative to control; details: filed as agonist
T1 sequence (whole entry): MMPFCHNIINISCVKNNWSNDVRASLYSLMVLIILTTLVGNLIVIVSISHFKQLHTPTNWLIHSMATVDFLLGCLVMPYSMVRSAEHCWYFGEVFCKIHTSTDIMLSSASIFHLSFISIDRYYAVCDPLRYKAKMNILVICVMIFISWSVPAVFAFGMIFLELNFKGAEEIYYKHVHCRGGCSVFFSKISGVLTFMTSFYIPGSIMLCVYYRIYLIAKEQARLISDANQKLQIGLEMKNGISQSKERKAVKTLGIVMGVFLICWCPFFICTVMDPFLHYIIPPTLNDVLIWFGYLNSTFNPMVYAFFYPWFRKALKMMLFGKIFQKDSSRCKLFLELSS

[2] = target: 5-hydroxytryptamine receptor 1A (Homo sapiens) (UniProt P08908); assay: Agonist activity at 5HT1A (unknown origin) relative to control; details: filed as agonist

- Emax [1]: 101%
- Emax [2]: 75%
SMILES: CNC[C@@H]1OCCc2ccsc21
